{
  "source": "patent US9198957B2",
  "about": "“Treatment and prevention of bacterial vaginosis and Gardnerella vaginalis infections” (The Trustees of Columbia University in the City of New York, priority 2011, dated 2015)",
  "test_system": "strain ARG3",
  "test": "MIC by E-test, strain ARG3",
  "type": "cell-based, Gardnerella vaginalis",
  "conditions": "Mueller-Hinton agar with 5% sheep's blood, CLSI, repeated twice",
  "data": [
    {"smiles": "CCC[C@@H]1C[C@@H](C(=O)N[C@@H]([C@H]2O[C@H](SC)[C@H](O)[C@@H](O)[C@H]2O)[C@H](C)Cl)N(C)C1", "note": "[clindamycin]", "values": [
      {"measurement": "Minimum Inhibitory Concentration (MIC)", "result": 0.125}
    ]}
  ]
}
